{"sequences": {"note": "By UniProt entry, the sequences of proteins in these tests, tags left out. Residues count along the entry.", "UniProt O60602, 21-858": "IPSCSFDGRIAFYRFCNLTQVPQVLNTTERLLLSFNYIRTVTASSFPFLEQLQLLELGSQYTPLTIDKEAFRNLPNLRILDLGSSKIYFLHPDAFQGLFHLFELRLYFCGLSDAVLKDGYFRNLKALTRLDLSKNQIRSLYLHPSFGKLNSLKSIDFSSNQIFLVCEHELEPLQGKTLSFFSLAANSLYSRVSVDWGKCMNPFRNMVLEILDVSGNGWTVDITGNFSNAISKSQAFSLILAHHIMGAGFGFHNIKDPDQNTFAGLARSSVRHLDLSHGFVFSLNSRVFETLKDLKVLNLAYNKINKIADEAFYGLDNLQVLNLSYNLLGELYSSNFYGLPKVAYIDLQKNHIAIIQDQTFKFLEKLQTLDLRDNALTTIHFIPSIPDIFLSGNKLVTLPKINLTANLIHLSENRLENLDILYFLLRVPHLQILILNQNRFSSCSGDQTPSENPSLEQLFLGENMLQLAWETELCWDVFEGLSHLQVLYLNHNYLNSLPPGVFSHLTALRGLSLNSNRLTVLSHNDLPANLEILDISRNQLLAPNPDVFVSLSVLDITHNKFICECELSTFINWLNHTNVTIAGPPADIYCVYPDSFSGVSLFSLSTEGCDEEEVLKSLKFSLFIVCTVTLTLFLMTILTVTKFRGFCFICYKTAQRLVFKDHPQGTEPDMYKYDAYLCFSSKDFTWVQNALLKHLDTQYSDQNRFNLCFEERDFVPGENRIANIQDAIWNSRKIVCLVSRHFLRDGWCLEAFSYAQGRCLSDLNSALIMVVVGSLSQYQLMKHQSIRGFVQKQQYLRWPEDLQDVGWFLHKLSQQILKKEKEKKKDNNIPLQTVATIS"}, "source": "patent US20240207380A1", "about": "“NOVEL PEPTIDE TARGETING DENDRITIC CELLS, AND COMPOSITION FOR TREATING CANCER COMPRISING SAME” (INDUSTRY FOUNDATION OF CHONNAM NATIONAL UNIVERSITY, priority 2021, published 2024)", "target": "T1, TLR5 (Homo sapiens, UniProt O60602)", "T1 construct": "host or cells: HEK-Blue hTLR5 cells (HEK293-derived reporter line, own knowledge: stably transfected with the human TLR5 gene and an NF-kB-inducible SEAP reporter)", "assay_type": "cell-based", "details": "HEK-Blue hTLR5 cells, triplicate OD 620 nm, 0.0375 nM-19.29 nM", "description": "By using HEK-Blue™ hTLR5 cells (InvivoGen, hKb-htlr-5) and HEK-Blue™ Detection (InvivoGen, hb-det2) assay systems, 4×E7ΔNLS::FlaB (EF) and DCpep6::4×E7ΔNLS::FlaB (DEF) were measured for TLR5-dependent NF-κB-stimulating activity. Also, the EC50 was calculated using triplicate OD 620 nm values for each protein concentration over a wide range of protein concentrations (0.0375 nM-19.29 nM at the AAT Bioquest website)."}
{"substance": "FlaB: flagellin B (FlaB) derived from Vibrio vulnificus, SEQ ID NO: 23", "values": [{"measurement": "EC50", "value": 0.73, "unit": "nM"}]}
